Results as given in article PMC11220827 (Frontiers in Pharmacology, 2024).

Sequences of proteins named here, by UniProt entry; tags and fusion partners are left off. Residues count along the entry.
UniProt P23219, 24-599: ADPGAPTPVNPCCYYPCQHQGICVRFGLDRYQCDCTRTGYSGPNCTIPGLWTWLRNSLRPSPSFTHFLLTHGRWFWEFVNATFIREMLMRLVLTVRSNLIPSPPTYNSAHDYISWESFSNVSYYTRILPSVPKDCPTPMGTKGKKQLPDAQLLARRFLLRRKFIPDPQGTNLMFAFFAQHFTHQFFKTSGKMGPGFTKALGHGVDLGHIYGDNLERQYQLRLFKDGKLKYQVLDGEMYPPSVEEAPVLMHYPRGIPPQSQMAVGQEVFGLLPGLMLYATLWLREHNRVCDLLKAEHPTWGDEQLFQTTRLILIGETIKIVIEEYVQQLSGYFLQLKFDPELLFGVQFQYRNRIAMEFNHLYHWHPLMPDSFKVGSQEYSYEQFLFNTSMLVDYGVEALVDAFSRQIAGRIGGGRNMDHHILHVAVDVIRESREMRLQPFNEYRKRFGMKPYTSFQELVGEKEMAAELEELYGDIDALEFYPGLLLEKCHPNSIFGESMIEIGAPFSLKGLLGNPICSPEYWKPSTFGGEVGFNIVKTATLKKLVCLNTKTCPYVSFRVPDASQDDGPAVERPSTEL

Molecular target: COX1 (h) (Homo sapiens, UniProt P23219)
Assay: Pharmacology profiling: COX1 (h)
Format: biochemical
Conditions: read-out: COX1 (h): % inhibition @10 µM

## O=c1c(-c2ccc(O)cc2)coc2cc(O)cc(O)c12 [Genistein, 5,7-DIHYDROXY-3-(4-HYDROXYPHENYL)-4-BENZOPYRONE]
  inhibition at 10 µM: 70.8%
